Source: patent US20080145918A1, “Method for the Detoxification of a Hazardous Compound” (published 2008)

Tested on: Artemia salina
Experiment: Accumulation test and arsenic content test, use of only artemia (Reference Example)
Details: artemia bred 1 day, artificial seawater 25° C.
[1] = Addition of inorganic arsenic (iAs 10 ppm), no glutathione
[2] = Both inorganic arsenic (10 ppm) and glutathione (10 ppm)

Row | Structure (SMILES) | Arsenic species content in artemia, dry weight [1] [μgAs/g dry] | Arsenic species content in artemia, dry weight [2] [μgAs/g dry]
1 | C[As](=O)(O)O | 0 | 0
2 | C[As](C)(=O)O | 4.512 | 4.375
